In EP0427405A1 (priority 1989, dated 1991):

Columns and labels:
[1] = tested on: Phaffia rhodozyma ENZA-A169; assay: kill curves with mutagens (viable cell count against exposure); assay type: cell-based
[2] = tested on: Phaffia rhodozyma ENZA-M10; assay: as above; assay type: cell-based; details: strain E1
[3] = tested on: Phaffia rhodozyma ENZA-M106; assay: NTG mutagenesis, survival rate; details: 9 ml cells added to 1 ml of 2 mg/ml NTG, 15 minutes, room temperature

## CN(N=O)C(=N)N[N+](=O)[O-]
[1]; strain E3
  kill curve, kinetics of death: follows 1st order kinetics
[1]; strain E3, compared with E1
  kill curve, speed of killing: killed much more quickly than E1
[2]
  kill curve, shape: definite "bump"
[3]
  survival rate: 3.1%
